Literature values, collected in US20140162261A1, “DETECTION KIT FOR IDENTIFYING GENOTYPE IN DEPRESSION PATIENTS AND METHOD OF USING THE SAME” (priority 2012, published 2014).

Columns and labels:
[1] = tested on: 5-HT2 receptors

## Cc1nc2n(c(=O)c1CCN1CCC(c3noc4cc(F)ccc34)CC1)CCCC2 [Risperidone]
After oral administration
  time to reach peak plasma concentration: 1 to 2 h
Oral administration
  digestion (absorption) after oral administration: completely digested
[1]
  affinity with 5-HT2 receptors: high affinity
